# Yeast mating assay 1: variants of the scFv Ab-14

The measurements come from Engelhart et al. 2022 (doi:10.1038/s41597-022-01779-4) through the FLAb antibody collection.

Antigen: PDVDLGDISGINAS, a 14-residue peptide of the SARS-CoV-2 spike HR2 region.

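Phage display of a naive human antibody library on the peptide gave the parent. Library AAYL50 holds single substitutions and randomly drawn double and triple substitutions in the CDRs. AlphaSeq pools MATa yeast showing the antibodies with MATalpha yeast showing the peptide. The frequency of each diploid, read from paired DNA barcodes, reflects how well the two displayed proteins bind. Scores were corrected for input abundance and mapped to Kd with protein pairs of known affinity run in the same pool. Mating was done three times.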

Ab-14 is the parent antibody, in scFv form: VH, then a 15-residue (Gly4Ser)3 linker, then VL. The heavy chain is unchanged in all variants.
VH: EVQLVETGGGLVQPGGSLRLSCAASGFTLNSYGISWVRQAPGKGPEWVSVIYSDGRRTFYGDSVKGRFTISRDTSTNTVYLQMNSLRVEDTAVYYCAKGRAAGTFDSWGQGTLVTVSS
VL: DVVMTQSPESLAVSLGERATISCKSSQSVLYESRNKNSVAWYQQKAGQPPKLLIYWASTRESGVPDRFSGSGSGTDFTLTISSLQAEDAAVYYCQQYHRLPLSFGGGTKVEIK

Variants are written as CDR1, CDR2 and CDR3 of the light chain (limits as in the source). Parent: KSSQSVLYESRNKNSVA, WASTRES, QQYHRLPLS. Values are log10 of the apparent Kd in nM; lower means stronger binding. Averages over replicates are reported, and they cover detected replicates only. An entry "n.d." has no value in the source: the pair was not observed among the diploids in that replicate. This suggests poor binding but is not conclusive.

CDR-L1,CDR-L2,CDR-L3,"replicates, log10 nM","mean, log10 nM",empty controls
KSSQSVLYESRNKNSVA,WASTRET,QQYHRAPVS,n.d. / n.d. / n.d.,n.d.,1 of 9 (4.12)
KSSQSVLYESRNKNKVD,WASTMES,QQYHRLPLS,n.d. / n.d. / n.d.,n.d.,0 of 9
KSSNSVLYESRNKNSVH,WASTRES,QQYHSLPLS,n.d. / n.d. / n.d.,n.d.,0 of 9
KSSQSRLYESRNKNSVA,WAHTRNS,QQYHRLPLS,n.d. / 2.76 / 3.93,3.35,2 of 9 (3.28)
KSSQSVLGVIRNKNSVA,WASTRES,QQYHRLPLS,1.10 / 1.22 / 1.31,1.21,4 of 9 (4.21)
KSSRSVLYESRNKNSVA,WFSIRES,QQYHRLPLS,n.d. / n.d. / n.d.,n.d.,0 of 9
KSFQSVLYESRNKNSVM,WASTRES,QQYHRRPLS,3.59 / n.d. / 5.00,4.29,3 of 9 (3.84)
HSSQSVLYRSRNKNSVA,WASTRES,QQTHRLPLS,n.d. / 4.45 / 4.02,4.24,3 of 9 (3.64)
KSSQSVGYESRNKNSVA,QASERES,QQYHRLPLS,-0.05 / 0.28 / 0.04,0.09,6 of 9 (5.25)
KSSQSRLYESRNKPSVA,WASTRES,QQYHRLPWS,n.d. / n.d. / n.d.,n.d.,0 of 9
KSSQSVLYESRNHNSVA,WASTRES,QQYHRSPMS,n.d. / n.d. / n.d.,n.d.,0 of 9
KSSQSVLYFWRNKNSVA,WASTRES,QAYHRLPLS,3.11 / 2.15 / n.d.,2.63,0 of 9
KSIQSVLYESRNKNSVA,PASTRES,QQYARLPLS,n.d. / n.d. / n.d.,n.d.,0 of 9
KQSQSVLYESRNKASVA,WASTRES,QQYHLLPLS,1.59 / 1.55 / 1.82,1.65,2 of 9 (4.39)
KSSISVLHESRNKNSVA,WASTRES,QQAHRLPLS,0.35 / 0.73 / 0.60,0.56,0 of 9
KSSQSVLYESRNKNNVA,YASTRES,QAYHRLPLS,-0.23 / 0.24 / 0.13,0.04,0 of 9
KSSQSVLYESRNKNSVI,SASTRES,QQYHRRPLS,n.d. / 4.01 / 4.81,4.41,4 of 9 (3.90)
KSSCSNLYESRNKNSVA,WASTRES,QQYHRLILS,1.37 / 1.85 / 1.71,1.64,1 of 9 (2.25)
KSSQGVLYESRNKNSVA,WASTRES,QQQHRLPNS,2.34 / 2.32 / 2.68,2.45,1 of 9 (4.84)
KSSNSVLYESRNKNSIA,WASTRES,QQYQRLPLS,0.42 / 0.71 / 0.54,0.55,4 of 9 (5.21)
GSSQSVLYESRNKNSWA,WASTRES,QQYHLLPLS,2.86 / 4.41 / 4.71,3.99,1 of 9 (4.51)
KSSQSVAYESRNKNSVA,WASTREC,QQYHHLPLS,1.83 / 1.77 / 1.91,1.84,2 of 9 (3.32)
KSSQHVLYESRNKESVA,WASTRES,QQYHRLPLF,n.d. / n.d. / n.d.,n.d.,1 of 9 (5.54)
KSSQSRLYESRNKNDVP,WASTRES,QQYHRLPLS,n.d. / n.d. / n.d.,n.d.,0 of 9
KSSQSVLYESRNKNSVA,WAGTRES,QQYHWLPLE,4.03 / 3.11 / n.d.,3.57,4 of 9 (4.11)
KSSQSVLYESRNKNSVA,AATTRES,QQYNRLPLS,0.99 / 0.99 / 1.00,1.00,0 of 9
KSSQRVLYESRNKNSVA,WGSTRES,QQYHCLPLS,1.04 / 0.79 / 1.35,1.06,0 of 9
KSSQAVLYESRNKNSPA,WASTRES,NQYHRLPLS,0.93 / 1.09 / 0.97,1.00,0 of 9
KSSQSVLYESRNINSVA,WASTDES,QQYHRLALS,n.d. / n.d. / n.d.,n.d.,0 of 9
KSTQSVLYEKRNKNSVS,WASTRES,QQYHRLPLS,n.d. / n.d. / n.d.,n.d.,1 of 9 (4.00)
KSSQSVLLESRNKNSVA,WASTRES,QHYHGLPLS,0.39 / 0.80 / 0.10,0.43,1 of 9 (2.77)
KSSQSGLAESRNKNSVA,FASTRES,QQYHRLPLS,0.37 / 0.63 / 0.71,0.57,1 of 9 (4.07)
KDSQSVLYESRNKNSVA,WASTRES,AQWHRLPLS,5.47 / 4.51 / 4.05,4.68,7 of 9 (4.59)
KSSNSVLYESRNKNSVA,WASTRES,QQYHRLPTS,3.21 / n.d. / n.d.,3.21,3 of 9 (3.57)
KGSQSVLYESRNKNSVA,WASTYES,QQYHRKPLS,n.d. / n.d. / n.d.,n.d.,0 of 9
PSEQSVLYESRNCNSVA,WASTRES,QQYHRLPLS,2.90 / n.d. / n.d.,2.90,0 of 9
KSSQSVLYENRNPNSVA,WASTRES,QQEHRLPLS,n.d. / n.d. / n.d.,n.d.,3 of 9 (4.50)
KSSQSVLYESRNKNSVA,WAMTRES,QQYHRLPLS,1.39 / 1.56 / 1.81,1.59,1 of 9 (4.03)
KSSQSQLYESRNKNSVA,WAITRES,QQYHRLPLV,3.18 / n.d. / n.d.,3.18,0 of 9
KPSQSVLYESRNKNSVA,WASTRMS,QQYHELPLS,n.d. / n.d. / n.d.,n.d.,0 of 9
KSSQDVLYESHNKNSNA,WASTRES,QQYHRLPLS,n.d. / n.d. / n.d.,n.d.,2 of 9 (3.80)
KSSQSVLQESRNKNGVA,WASTRES,QQYHRLRLS,n.d. / n.d. / n.d.,n.d.,1 of 9 (4.29)
KSSQSVLYESRNKNSVA,WMSTRVS,QQYHRLPES,1.66 / 1.67 / 1.83,1.72,4 of 9 (4.58)
KSSQSVYYETRNKNSVA,WLSTRES,QQYHRLPLS,3.99 / 3.08 / 3.91,3.66,2 of 9 (4.84)
KSSQSVFYESRWKNSVA,WASTRES,QQYHRLPLS,1.56 / 1.76 / 2.23,1.85,2 of 9 (3.52)
KSSQSVLYESRNKSSDA,MASTRES,QQYHRLPLS,n.d. / n.d. / n.d.,n.d.,1 of 9 (3.83)
KSSQSVLEESRNKNSVA,WASTRES,QMYHRLDLS,4.28 / n.d. / n.d.,4.28,3 of 9 (3.83)
KSSQSNIYECRNKNSVA,WASTRES,QQYHRLPLS,n.d. / 3.81 / n.d.,3.81,2 of 9 (4.68)
KSSYSVLYESRNKNSVR,WASTRES,QQYHGLPLS,n.d. / 3.03 / n.d.,3.03,1 of 9 (3.64)
KSSASVLYESRNKNSVA,WAHTRES,QQMHRLPLS,5.25 / 5.16 / 5.11,5.17,2 of 9 (4.48)
KSSQSVLYESRNKNSVA,WYEWRES,QQYHRLPLS,n.d. / n.d. / n.d.,n.d.,2 of 9 (1.94)
KSSQSHLYEVRCKNSVA,WASTRES,QQYHRLPLS,3.33 / 3.66 / 3.23,3.41,5 of 9 (4.37)

Repeated from above, the 5 best binders with a signal in all replicates:

CDR-L1,CDR-L2,CDR-L3,"replicates, log10 nM","mean, log10 nM",empty controls
KSSQSVLYESRNKNNVA,YASTRES,QAYHRLPLS,-0.23 / 0.24 / 0.13,0.04,0 of 9
KSSQSVGYESRNKNSVA,QASERES,QQYHRLPLS,-0.05 / 0.28 / 0.04,0.09,6 of 9 (5.25)
KSSQSVLLESRNKNSVA,WASTRES,QHYHGLPLS,0.39 / 0.80 / 0.10,0.43,1 of 9 (2.77)
KSSNSVLYESRNKNSIA,WASTRES,QQYQRLPLS,0.42 / 0.71 / 0.54,0.55,4 of 9 (5.21)
KSSISVLHESRNKNSVA,WASTRES,QQAHRLPLS,0.35 / 0.73 / 0.60,0.56,0 of 9

Empty control strains, which show no peptide, gave a signal in 18% of pairings with library AAYL50; the median was 4.19 and 95% of these signals were weaker than 2.99. No background was subtracted. The control count says in how many pairings with the empty strains this scFv gave a signal, with their mean in brackets. In this assay the parent's reference entry averaged 0.65; its copy inside this library read 1.68.